According to patent US20200319163A1, “METHODS AND COMPOSITIONS OVERCOMING CANCER CELL IMMUNE RESISTANCE” (Georgetown University, priority 2019, published 2020):

Experiments:
ADCCR1 cells [1] = test: ADCC assay (specific lysis by NK92-CD16V effector cells) on ADCC-resistant cells; assay type: cell-based, human; settings: trastuzumab 5 μg/mL, 4 hours, 1:1 E:T; FIG. 2E
Description: Inhibitors of histone acetyltransferase C646 (cat. no. S7152), DNA methyltransferase azacytidine (cat. no. S1782), histone demethylase GSK J4 HCL (cat. no. S7070), and HDAC panobinostat (cat. no. S1030) were purchased from Selleck Chemicals. Inhibitors were solubilized in DMSO at […]. Vehicle treatment (DMSO) was used at the highest equivalent v/v used in inhibitor treatments.
ADCC assays were preformed using A431/ADCCS1/ADCCR1 as target cells and NK92-CD16V cells as the effector cells. Target cells are plated at 10,000 cells/well overnight (A431 cells double overnight).

[2] = tested on: ADCC resistant cells of the SKOV3 cell line; test: Immunofluorescent imaging for trastuzumab in SKOV3 cell line; assay type: binding; settings: SKOV3 ADCC resistant vs sensitive cells; FIG. 38
ADCCR1 cells [3] = test: Flow cytometry analysis of directly-labeled cetuximab binding; design: species or system human; settings: FIG. 36
Protocol: A431 cells were cultured for 3 to 6 passages and then were dissociated using 0.25% trypsin, resuspended in DMEM plus 10% FBS and 1% 1-glutamine. Cells (0.5×10^6 to 1×10^6) were aliquoted into Eppendorf tubes, spun at 5,000 rpm for 1 minute at 4° C., washed twice with HBSS (Fisher Scientific; cat. no. SH3058801), and resuspended in 100 μL of FACS buffer (PBS plus 1% BSA). All antibodies used are labeled antibodies, and no blocking step was performed. Labeled antibodies were then added at the manufacturer's recommended concentrations and incubated at 4° C. for 30 minutes, with vortexing at 15 minutes. For intracellular staining, cells were resuspended in 50 μL of BD perm/wash (cat. no. 554723) for 20 minutes before proceeding to staining with antibody at 4° C. for 30 minutes. Cells were then washed with FACS buffer twice and resuspended in FACS buffer or fixative (1% PFA in PBS). Flow antibodies were purchased from BioLegend: EGFR (cat. no. 352904), CD74 (cat. no. 326807), CD54/ICAM (cat. no. 322713), CD142 (cat. no. 365205), CD73 (cat. no. 344021), ITGB4/CD104 (cat. no. 343903), ALCAM/CD166 (cat. no. 343903), CD95/Fas (cat. no. 305611), CD138, (cat. no. 352307), and APC-labeled IgG1 isotype control (cat. no. 400121). CD107a (cat. no. 641581), CD44 (cat. no. 559942), HER2 (cat. no. 340879), and PD-L1 (cat. no. 557929) were purchased from BD Biosciences. […]

ADCCR1 cells [4] = test: Immunofluorescent imaging for directly labeled cetuximab, resistant cells; assay type: binding, human; settings: FIG. 37
Description: (§1) As previously discussed, ADCCR1 cells express EGFR but are not bound by directly-labeled cetuximab.

ADCCS1 cells = test: Immunofluorescent imaging for directly labeled cetuximab, sensitive cells; assay type: binding, human; settings: FIG. 37
Description: as §1

A431 cells = settings: EGFR-overexpressing A431 cells, NK92-CD16V; previously shown (Murray 2014); cited from earlier work

Substance	ADCC mediated by trastuzumab (specific lysis) (ADCCR1 cells [1])	trastuzumab binding (immunofluorescence) [2]	binding of directly-labeled cetuximab (flow cytometry) (ADCCR1 cells [3])	detection of directly labeled cetuximab (immunofluorescence) (ADCCR1 cells [4])	detection of directly labeled cetuximab (immunofluorescence) (ADCCS1 cells)	sensitivity to cetuximab-mediated ADCC (A431 cells)
trastuzumab	displayed resistance to ADCC	profound loss of trastuzumab binding				
cetuximab			not bound	weakly detected on the cell surface and perinuclearly	detected more strongly on cell surface and perinuclearly	sensitive
